Where two headings read alike, the source gives them in different places.
What was measured:
[1] = molecular target: Avi-KRAS G12R (1-169) GppNHp/RAF1 RBD-3xFLAG (52-151) (Homo sapiens, UniProt P01116, G12R); assay: Raf1-KRAS G12R-GppNHP disruption HTRF assay (Biological Example 1); conditions: read-out: Raf1-GppNHp-KRAS G12R disruption
[2] = molecular target: Avi-KRAS G12V (1-169) GppNHp/RAF1 RBD-3xFLAG (52-151) (Homo sapiens, UniProt P01116, G12V); assay: Raf1-KRAS G12V-GppNHP disruption HTRF assay (Biological Example 1); conditions: read-out: Raf1-GppNHp-KRAS G12V disruption
[3] = tested on: GP2d cells (KRAS G12D); assay: Cell-based pERK HTRF assay in GP2d cell (Biological Example 2)
[4] = molecular target: Avi-KRAS WT (1-169) GppNHp/RAF1 RBD-3xFLAG (52-151) (Homo sapiens, UniProt P01116); assay: Raf1-KRAS WT-GppNHP disruption HTRF assay (Biological Example 1); conditions: read-out: Raf1-GppNHp-KRAS WT disruption
[5] = molecular target: Avi-KRAS G12D (1-169) GppNHp/RAF1 RBD-3xFLAG (52-151) (Homo sapiens, UniProt P01116, G12D); assay: Raf1-KRAS G12D-GppNHP disruption HTRF assay (Biological Example 1); conditions: read-out: Raf1-GppNHp-KRAS G12D disruption
[6] = tested on: SW620 cells (KRAS G12V); assay: Cell-based pERK HTRF assay in SW620 cell (Biological Example 4)
[7] = read-out: PERK-Gp2D-, pERK HTRF
[8] = read-out: PERK-SW620, pERK HTRF
[9] = KRAS G12R, GppNHp-loaded, class symbols
[10] = KRAS G12V, GppNHp-loaded, class symbols
[11] = read-out: PERK-Gp2D-, pERK HTRF, class symbols
[12] = KRAS WT, GppNHp-loaded, class symbols
[13] = KRAS G12D, GppNHp-loaded, class symbols
[14] = read-out: PERK-SW620, pERK HTRF, class symbols

Amino acid sequences for entries named in this document (tags omitted). Residues count along the entry.
UniProt P01116, 1-169 isoform 2 limits assumed: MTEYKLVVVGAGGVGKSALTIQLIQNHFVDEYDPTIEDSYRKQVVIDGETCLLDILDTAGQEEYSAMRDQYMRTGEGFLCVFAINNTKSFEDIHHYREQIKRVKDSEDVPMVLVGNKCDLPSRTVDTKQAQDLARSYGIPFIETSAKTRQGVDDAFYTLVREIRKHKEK
UniProt P01116, 1-169 isoform 2 G12D limits assumed: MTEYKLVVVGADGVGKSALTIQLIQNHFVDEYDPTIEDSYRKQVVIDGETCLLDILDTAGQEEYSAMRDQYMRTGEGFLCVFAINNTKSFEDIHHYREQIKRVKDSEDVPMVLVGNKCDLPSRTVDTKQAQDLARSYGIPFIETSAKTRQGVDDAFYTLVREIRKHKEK
UniProt P01116, 1-169 isoform 2 G12R limits assumed: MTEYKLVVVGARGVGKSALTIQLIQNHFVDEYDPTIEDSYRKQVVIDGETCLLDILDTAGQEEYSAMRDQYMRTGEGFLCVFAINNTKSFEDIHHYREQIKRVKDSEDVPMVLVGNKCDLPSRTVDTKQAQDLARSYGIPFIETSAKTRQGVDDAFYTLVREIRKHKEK
UniProt P01116, 1-169 isoform 2 G12V limits assumed: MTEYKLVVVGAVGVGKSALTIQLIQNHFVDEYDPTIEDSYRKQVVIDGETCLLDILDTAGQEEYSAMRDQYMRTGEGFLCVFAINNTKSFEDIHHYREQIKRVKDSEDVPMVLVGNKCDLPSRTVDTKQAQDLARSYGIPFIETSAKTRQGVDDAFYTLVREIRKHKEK

IC50 ([1]; KRAS G12R-GppNHp/RAF1 RBD HTRF)	IC50 ([2]; KRAS G12V-GppNHp/RAF1 RBD HTRF)	IC50 [3, 7]	IC50 ([4]; KRAS WT-GppNHp/RAF1 RBD HTRF)	IC50 ([5]; KRAS G12D-GppNHp/RAF1 RBD HTRF)	IC50 [6, 8]	IC50 [1, 9]	IC50 [2, 10]	IC50 [3, 11]	IC50 [4, 12]	IC50 [5, 13]	IC50 [6, 14]	IC50 ([1]; KRAS G12R, GppNHp-loaded, Table 11)	IC50 ([2]; KRAS G12V, GppNHp-loaded, Table 11)	IC50 ([4]; KRAS WT, GppNHp-loaded, Table 11)	IC50 ([5]; KRAS G12D, GppNHp-loaded, Table 11)	Compound
1 to 10 µM	1 to 10 µM	< 0.1 µM	0.1 to 1 µM	0.1 to 1 µM	0.1 to 1 µM	–	–	–	–	–	–	–	–	–	–	CCN(c1nc(OC[C@@]23CCCN2C[C@H](F)C3)nc2c(F)c(-c3ccc(F)c4sc(N)c(C#N)c34)c(Cl)cc12)[C@@H]1CCN(C(=O)C2CC2)[C@H]1C
–	–	–	–	–	–	0.1 to 1 µM	0.1 to 1 µM	< 0.1 µM	0.1 to 1 µM	0.1 to 1 µM	0.1 to 1 µM	–	–	–	–	CCN(c1nc(OC[C@]23CCCN2C[C@H](OC)C3)nc2c(F)c(-c3ccc(F)c4sc(N)c(C#N)c34)c(C(F)(F)F)cc12)[C@H]1CCN(C(=O)C(C)C)C1
–	–	< 0.1 µM	–	–	< 0.1 µM	–	–	–	–	–	–	0.1 to 1 µM	0.1 to 1 µM	0.1 to 1 µM	< 0.1 µM	CC(=O)N1CC[C@H](N(C)c2nc(OC[C@@]34CCCN3C[C@H](F)C4)nc3c(F)c(-c4ccc(F)c5sc(N)c(C#N)c45)c(C(F)(F)F)cc23)C1
0.1 to 1 µM	1 to 10 µM	< 0.1 µM	0.1 to 1 µM	0.1 to 1 µM	< 0.1 µM	–	–	–	–	–	–	–	–	–	–	N#Cc1c(N)sc2c(F)ccc(-c3c(C(F)(F)F)cc4c(N5C[C@@H]6C[C@@H](O)[C@H]5C6)nc(OC[C@@]56CCCN5C[C@H](F)C6)nc4c3F)c12

Second part, the molecule before the results:

Compound	IC50 ([1]; KRAS G12R-GppNHp/RAF1 RBD HTRF)	IC50 ([2]; KRAS G12V-GppNHp/RAF1 RBD HTRF)	IC50 [3, 7]	IC50 ([4]; KRAS WT-GppNHp/RAF1 RBD HTRF)	IC50 ([5]; KRAS G12D-GppNHp/RAF1 RBD HTRF)	IC50 [6, 8]	IC50 [1, 9]	IC50 [2, 10]	IC50 [3, 11]	IC50 [4, 12]	IC50 [5, 13]	IC50 [6, 14]	IC50 ([1]; KRAS G12R, GppNHp-loaded, Table 11)	IC50 ([2]; KRAS G12V, GppNHp-loaded, Table 11)	IC50 ([4]; KRAS WT, GppNHp-loaded, Table 11)	IC50 ([5]; KRAS G12D, GppNHp-loaded, Table 11)
N#Cc1c(N)sc2c(F)ccc(-c3c(Cl)cc4c(N5CC6CC(C5)O6)nc(OC[C@@]56CCCN5C[C@H](F)C6)nc4c3F)c12	0.1 to 1 µM	0.1 to 1 µM	< 0.1 µM	0.1 to 1 µM	0.1 to 1 µM	< 0.1 µM	–	–	–	–	–	–	–	–	–	–
CC(C)C(=O)N1CC[C@@H](N(C)c2nc(OC[C@@]34CCCN3C[C@H](F)C4)nc3c(F)c(-c4ccc(F)c5sc(N)c(C#N)c45)c(Cl)cc23)[C@H]1C	0.1 to 1 µM	1 to 10 µM	< 0.1 µM	0.1 to 1 µM	0.1 to 1 µM	0.1 to 1 µM	–	–	–	–	–	–	–	–	–	–
CCN(c1nc(OC[C@@]23CCCN2C[C@H](OC)C3)nc2c(F)c(-c3ccc(F)c4sc(N)c(C#N)c34)c(C(F)(F)F)cc12)[C@H]1CCN(C(=O)C(C)C)C1	–	–	–	–	–	–	< 0.1 µM	0.1 to 1 µM	< 0.1 µM	< 0.1 µM	< 0.1 µM	< 0.1 µM	–	–	–	–

Reference: patent publication US20260042764A1, “COMPOSITIONS AND METHODS FOR INHIBITION OF KRAS” (TheRas, Inc., priority 2022, published 2026)
